Screens from PubChem.
GIV Gai3 FP: inhibitors of GIV GBA-motif binding to rat Galpha-i3; P08753; Galpha-i3/FITC-GIV peptide fluorescence polarization, 90 min; hits give low values; scaled: aluminum fluoride 0%, vehicle 100%; percent of control (FP), % (no concentration beside the values); hit rate 0.42% among 210,000; AID 1224905;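 active = replicate mean at 85% of control or lower, very high polarization wells dropped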;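 note: wells of about 15 µL received 100 nL stock; the first replicate is given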
HCMV UL50-53 inh: disrupts HCMV UL50-UL53 complex binding | HTRF UL50-UL53 interaction, normalized percent inhibition | inhibition, % (concentration not given with the values) | hit rate 0.15% among 190,000 | AID 1918969; in the data active means inhibition above about 27%, passing the limit was not always enough
GIV Gai FP conf: confirmation of inhibitors of GIV binding to rat Galpha-i3; hit rate 38% among 580; shares compounds with GIV Gai3 FP; FITC-GIV peptide binding to Galphai3, fluorescence polarization; hits give low values; fluorescence polarization, mP at 100 µM;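 active means inhibition score of 15 or more, meaning 100 minus mean polarization as percent of control over three replicates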;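 further: lower mP means peptide displaced from Galphai3 so more inhibition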
GIV Gai AS conf: GIV-Galpha-i3 inhibition, AlphaScreen confirmation. shares compounds with GIV Gai3 FP. hit rate 39% among 580. AID 1259351. AlphaScreen Galphai3-GIV binding, purified proteins, 90 min; hits give low values. AlphaScreen counts at 100 µM;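 active means inhibition score at or above a set limit, where the score is 100 minus the three-replicate mean percent of control signal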
Large screens that a line does not name were inactive (follow-up assays come after a bar, where they were run). A selection: hits, their analogues and other compounds. The true share with any hit is near 0.43%.

Oc1ccc2ncccc2c1C(Nc1ccccn1)c1ccco1 (stereo not drawn)	GIV Gai3 FP 79 | GIV Gai FP conf inactive | GIV Gai AS conf 5282
Cn1nc(COCc2ccccc2)c2c1CCN(S(=O)(=O)c1ccc(Br)cc1)C2	none (no result: HCMV UL50-53 inh)
CC1CC(C)CN(C(=O)c2ccc(C(F)(F)F)cc2)C1 (stereo not drawn)	none (no result: GIV Gai3 FP)
O=C(NC1CCCc2ccccc21)C1COc2ccccc2O1 (stereo not drawn)	none (no result: GIV Gai3 FP)
COc1ccc(NC(=O)c2sc3nc4n(c(=O)c3c2C)CCC4)cc1Cl	GIV Gai3 FP 83 | GIV Gai FP conf inactive | GIV Gai AS conf inactive
COc1cc(NC(=O)c2sc3nc4n(c(=O)c3c2C)CCCCC4)cc(OC)c1OC	none
CCCS(=O)(=O)N1CCCC(C(=O)NC(C)C)C1 (stereo not drawn)	none
C=CCNC(=O)C1CCCN(S(=O)(=O)CCC)C1 (stereo not drawn)	GIV Gai3 FP 84 | GIV Gai FP conf inactive | GIV Gai AS conf inactive
Cc1ccccc1-c1noc(-c2ccccc2OCC(=O)Nc2nc(C(C)C)cs2)n1	none
CC(C)C(=O)Nc1sc2c(c1C(=O)OCc1nnc3n(C)c(=O)c4ccccc4n13)CCC2	none (no result: GIV Gai3 FP)
CC(NCCO)c1ccc2c(c1)OCCO2 (stereo not drawn)	GIV Gai3 FP 78 | GIV Gai FP conf inactive | GIV Gai AS conf inactive
CC(NC(=O)c1ccccc1C(=O)NC(C)c1ccc2c(c1)OCCO2)c1ccc2c(c1)OCCO2 (stereo not drawn)	none
CCCNC(c1ccccc1)c1ccncc1 (stereo not drawn)	none
Cc1cc(C)cc(N2C(=O)N(Cc3cc(=O)n4ccccc4n3)c3ccccc3S2(=O)=O)c1	none (no result: HCMV UL50-53 inh)
O=C1N(Cc2cc(=O)n3ccccc3n2)c2ccccc2S(=O)(=O)N1c1ccc(Cl)cc1	GIV Gai3 FP 85 (no result: HCMV UL50-53 inh) | GIV Gai FP conf 51 | GIV Gai AS conf inactive
COC(=O)c1c(NC(=O)CC2Nc3cc(C)c(C)cc3NC2=O)sc(C)c1C (stereo not drawn)	none (no result: HCMV UL50-53 inh) | GIV Gai FP conf 22 | GIV Gai AS conf inactive
COC(=O)c1c(NC(=O)CC2Sc3ccccc3NC2=O)sc(C)c1C (stereo not drawn)	none (no result: GIV Gai3 FP)
CCOc1cc(-c2ccccc2O)ncn1	none (no result: HCMV UL50-53 inh)
COc1ccccc1/C=C1\C(=O)N(c2ccc(C)cc2)C2=C1C(c1ccccc1)N(c1ccc(C)cc1)C2=O (stereo not drawn)	none (no result: HCMV UL50-53 inh)
Cc1ccc(N2C(=O)/C(=C\c3ccc(C(C)C)cc3)C3=C2C(=O)N(c2ccc(C)cc2)C3c2ccccc2)cc1 (stereo not drawn)	GIV Gai3 FP 85 (no result: HCMV UL50-53 inh) | GIV Gai FP conf inactive | GIV Gai AS conf inactive
CC1CCC(NC(=O)c2cc(-c3ccccc3)n[nH]2)CC1 (stereo not drawn)	none (no result: GIV Gai3 FP)
O=C(CSc1ncnc2nc(N3CCCC3)sc12)NCCC1=CCCCC1	none
CCOc1cccc(N2C(=O)/C(=C/c3cn(CC(=O)N4CCOCC4)c4ccccc34)C(=O)NC2=S)c1	GIV Gai3 FP 82 | GIV Gai FP conf inactive | GIV Gai AS conf inactive
CN1C(=O)/C(=C/c2cn(CC(=O)N3CCCC3)c3ccccc23)C(=O)NC1=S	none
CC(=O)Nc1ccc(NC(=O)c2ccco2)cc1	none
O=C(O)c1cc(NC(=O)c2ccc(NC(=O)c3ccco3)cc2)cc(C(=O)O)c1	GIV Gai3 FP 79 | GIV Gai FP conf 64 | GIV Gai AS conf 22001
CCC(C(=O)N(C)c1ccccc1)c1ccccc1 (stereo not drawn)	none (no result: GIV Gai3 FP)
O=c1nc(SCc2ccc(Cl)cc2)c2c(n1C1CCCC1)CCC2	none
CCCSc1nnc2c(n1)OC(c1c(OC)ccc3ccccc13)Nc1ccccc1-2 (stereo not drawn)	none
CCCSc1nnc2c(n1)OC(c1ccc(OCC(=O)O)cc1)Nc1ccccc1-2 (stereo not drawn)	none (no result: HCMV UL50-53 inh)
CCSc1nnc2c(n1)OC(c1c(OC)ccc3ccccc13)Nc1ccccc1-2 (stereo not drawn)	GIV Gai3 FP -4.5 | GIV Gai FP conf inactive | GIV Gai AS conf 32956
CCCSc1nnc2c(n1)OC(c1ccc(F)cc1)Nc1ccccc1-2 (stereo not drawn)	GIV Gai3 FP 66 | GIV Gai FP conf inactive | GIV Gai AS conf inactive
CCSc1nnc2c(n1)OC(c1ccc(Cl)cc1)Nc1ccccc1-2 (stereo not drawn)	GIV Gai3 FP 78 | GIV Gai FP conf inactive | GIV Gai AS conf inactive
CCSc1nnc2c(n1)OC(c1ccc(C)cc1)Nc1ccccc1-2 (stereo not drawn)	none
COc1ccc2cc3c(N)c(C(=O)Nc4ncc(C)s4)sc3nc2c1	none
COCC(C)Nc1ncnc2c1c(-c1ccccc1)cn2-c1ccc(C)c(Cl)c1 (stereo not drawn)	none (no result: HCMV UL50-53 inh)
